Source: US10328116B2, “Combinations of proteasome inhibitors and cyclic peptides” (BIG DNA LTD, priority 2014, dated 2019)

Tested on: T47D breast cancer cell line
Assay: Sulforhodamine B viability, isobologram and combination index in T47D cells (Examples 4-5)
Conditions: Homo sapiens, read-out: Bortezomib (M) resulting in 50% reduction in viability, single agent (IC50)
Description: For assessment of combined BTZ and cilengitide toxicity, T47D cells were seeded at a density of 7500 cells/cm^2 in 96-well cell culture plates and incubated for 24 hours. Cilengitide was diluted to 20 μM in complete DMEM, then 3 serial tenfold dilutions of this were performed in complete DMEM (2 μM, 200 nM and 20 nM). Complete DMEM containing no cilengitide was provided for negative controls.
These dilutions (or DMSO for wells containing no BTZ) were added to aliquots of complete DMEM containing 0-20 μM cilengitide for a 1/150 dilution. Aliquots (0.1 mL) of each mixture were added to wells already containing 0.1 mL medium (in duplicate), resulting in a matrix of cilengitide (10 nM-10 μM) and/or BTZ (1 nM-10 μM) or neither agent (diluent only).
OD570nm readings were divided by those resulting from negative control (diluent only) wells and expressed as a percentage. Three independent replicates of this experiment were carried out.
The isoboles were obtained similarly by extrapolation of points representing 50% reduction in viability from line graphs of % viability versus concentration of one agent at variable concentration with the other agent supplied at a fixed concentration. […]

CC(C)C[C@H](NC(=O)[C@H](Cc1ccccc1)NC(=O)c1cnccn1)B(O)O [Bortezomib] gave an IC50 of 8.9e-08 M.
